The structures appear in SMILES notation. This is a selection; strong and weak results do not stand in their true shares. The source made the active and inactive calls.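 Rule for the calls: active = activation above the run cutoff, the mean activation of all test compounds plus 3 SD (cut at about 18% in these data); inactive = the rest.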

Amino acid sequences for entries named in this document (tags omitted).
UniProt P08912, whole entry: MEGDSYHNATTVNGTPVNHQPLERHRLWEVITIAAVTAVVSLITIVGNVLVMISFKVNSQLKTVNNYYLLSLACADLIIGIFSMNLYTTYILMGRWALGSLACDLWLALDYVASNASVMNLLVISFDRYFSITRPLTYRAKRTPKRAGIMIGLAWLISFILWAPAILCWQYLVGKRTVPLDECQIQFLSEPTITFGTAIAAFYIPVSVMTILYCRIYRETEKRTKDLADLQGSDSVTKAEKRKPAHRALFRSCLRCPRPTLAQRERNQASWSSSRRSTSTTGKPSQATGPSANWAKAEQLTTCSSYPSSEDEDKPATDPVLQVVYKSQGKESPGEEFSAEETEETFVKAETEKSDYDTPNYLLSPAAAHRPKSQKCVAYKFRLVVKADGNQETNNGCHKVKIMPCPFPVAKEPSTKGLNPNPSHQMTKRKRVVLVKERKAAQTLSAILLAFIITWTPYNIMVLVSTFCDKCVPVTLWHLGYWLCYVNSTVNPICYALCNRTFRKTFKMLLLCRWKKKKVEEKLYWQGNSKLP

For this test, the target named is Muscarinic acetylcholine receptor M5 (Homo sapiens) (UniProt P08912). The test can be described thus: human M5 muscarinic receptor positive allosteric modulators, primary screen, CHO-K1 cells, Fluo-8 calcium fluorescence (AID 624038). The following applies: CHO-K1 hM5, Fluo-8 calcium, ACh EC20 PAM; at 3 µM; active compounds read high; 0% = ACh EC20, 100% = ACh EC100.
Regarding `CCOC(=O)N1CCC(Nc2ccc(C)cc2)CC1`, the activation is inactive: 1.58%. The figure for `COc1cccc(C(c2nnnn2C(C)(C)C)N2CCC(n3c(=O)[nH]c4ccccc43)CC2)c1OC` (stereo not given) is inactive: -15%; for `N/C(=N\O)c1c(N)no[n+]1[O-]` it is inactive: -0.22%.

For `O=c1[nH]c2ccccc2n1C1CCN(C(c2cccs2)c2nnnn2C2CCCC2)CC1` (stereo not given), the activation was inactive: -12.1%. The figure for `O=C(OC1CN2CCC1CC2)C1c2ccccc2C=Cc2ccccc21` (stereo not given) is inactive: -20.1%; for `CCCCn1nnnc1C(c1cccc(OC)c1OC)N1CCC(n2c(=O)[nH]c3ccccc32)CC1` (stereo not given) it is inactive: -17.1%. The figure for `COc1cc(C(=O)NCC2(N3CCOCC3)CCCCC2)cc(OC)c1C` is inactive: -0.34%; for `CCCCn1nnnc1C(c1ccccc1)N1CCC(n2c(=O)[nH]c3ccccc32)CC1` (stereo not given) it is inactive: -11.3%; for `O=C(NCC1(N2CCOCC2)CCCCC1)c1cc(Br)ccc1Cl` it is inactive: 5.26%. The figure for `O=c1[nH]c2ccccc2n1C1CCN(C(c2cccs2)c2nnnn2C2CCCCC2)CC1` (stereo not given) is inactive: -18%; for `O=c1[nH]c2ccccc2n1C1CCN(C(c2ccnc3ccccc23)c2nnnn2C2CCCC2)CC1` (stereo not given) it is inactive: -9.75%; for `COc1ccc(C(=O)NCC2(N3CCOCC3)CCCCC2)cc1OC` it is inactive: 7.06%. As to `CN(C)C1(CNC(=O)c2cccc(C#N)c2)CCCCC1`, the activation is inactive: 1.42%.

Consider `O=c1[nH]c2ccccc2n1C1CCN(C(c2ccccc2)c2nnnn2C2CCCC2)CC1` (stereo not given), for which the activation was inactive: -14.3%. The figure for `CCCN1CCC(Nc2cc(OC)cc(OC)c2)CC1` is inactive: -2.38%.

As to `Cc1cc(N(CCCl)CCCl)ccc1C=O`, the activation was inactive: -4.32%. The figure for `c1ccc(CN2CCC(Nc3ccccc3)CC2)cc1` is inactive: -0.32%; for `CC(C)(C)n1nnnc1C(c1cccc2ccccc12)N1CCC(n2c(=O)[nH]c3ccccc32)CC1` (stereo not given) it is inactive: -0.92%. For the compound `N#Cc1ccc(C(=O)NCC2(N3CCCCC3)CCCCC2)cc1`, the activation is inactive: 12.8%.

Take `CC(C)(C)OC(=O)N1CCC(N(C(=O)c2ccccc2)c2ccc(Cl)cc2)CC1`: the activation was inactive: -1.12%. The figure for `COc1ccc(C(c2nnnn2C2CCCCC2)N2CCC(n3c(=O)[nH]c4ccccc43)CC2)cc1` (stereo not given) is inactive: 7.73%; for `CCN1CCC(Nc2cccc(F)c2)CC1` it is inactive: 4.8%.

For `CC(C)(C)n1nnnc1C(c1ccnc2ccccc12)N1CCC(n2c(=O)[nH]c3ccccc32)CC1` (stereo not given), the activation was inactive: -2.34%.

Take `Cc1ccccc1NC1(C#N)CCN(Cc2ccccc2)CC1`: the activation was inactive: 4.5%.

Turning to `CN(C)c1ccc(C(=O)NCC2(N3CCCCC3)CCCCC2)cc1`, the activation was inactive: 7.12%. The figure for `Cn1c(=O)[nH]cc(N(CCCl)CCCl)c1=O` is inactive: 4.77%; for `O=C(NCC1(N2CCCCC2)CCCCC1)c1ccco1` it is inactive: -1.98%. The figure for `CCC(c1nnnn1C1CCCCC1)N1CCC(n2c(=O)[nH]c3ccccc32)CC1` (stereo not given) is inactive: -3.43%. The figure for `COc1cccc(C(c2nnnn2C2CCCCC2)N2CCC(n3c(=O)[nH]c4ccccc43)CC2)c1OC` (stereo not given) is inactive: -21.9%; for `CC(=O)N(c1ccccc1)C1CCNCC1` it is inactive: 0.11%; for `COc1cc(OC)cc(C(=O)NCC2(N3CCCCC3)CCCCC2)c1` it is inactive: 0.45%. In the case of `O=c1[nH]c2ccccc2n1C1CCN(C(c2ccnc3ccccc23)c2nnnn2C2CCCCC2)CC1` (stereo not given), the activation was inactive: -8.92%. The figure for `Fc1ccccc1NC1CCN(Cc2ccccc2)CC1` is inactive: -1.78%; for `Cc1ccc(C(=O)NCC2(N3CCCCC3)CCCCC2)o1` it is inactive: 2.03%. The figure for `Cc1ccc(NC2(C#N)CCN(Cc3ccccc3)CC2)cc1` is inactive: 3.76%; for `COc1cccc(C(=O)N(c2cc(C)cc(C)c2)C2CCN(C(=O)OC(C)(C)C)CC2)c1` it is inactive: -5.9%. For the compound `COc1cc(OC)cc(C(=O)NCC2(N3CCOCC3)CCCCC2)c1`, the activation was inactive: 4.23%.

As to `COc1cccc(C(c2nnnn2C2CCCC2)N2CCC(n3c(=O)[nH]c4ccccc43)CC2)c1OC` (stereo not given), the activation is inactive: -22.4%.

With `CCC(CO)(C(=O)OC1CN2CCC1CC2)c1ccccc1` (stereo not given), the activation was inactive: -21.1%. The figure for `CN1CCC(Nc2ccc(Cl)cc2)CC1` is inactive: -0.68%; for `CN1CCC(Nc2ccc(F)c(Cl)c2)CC1` it is inactive: 0.11%. For `CCOc1ncccc1C(=O)NCC1(N2CCOCC2)CCCCC1`, the activation was inactive: -6.3%. The figure for `NN(c1ccccc1)C1CCN(CCc2ccccc2)CC1` is inactive: -9.52%; for `O=C(O)C1(Nc2ccccc2)CCN(Cc2ccccc2)CC1` it is inactive: -1.91%; for `CC(C)(C)OC(=O)N1CCC(Nc2ccccc2)CC1` it is inactive: -5.01%.

As to `O=c1[nH]c2ccccc2n1C1CCN(C(c2cc3ccccc3o2)c2nnnn2C2CCCC2)CC1` (stereo not given), the activation is inactive: -4.05%.

For the compound `CCCOc1ccc(C(=O)NCC2(N(C)C)CCCCC2)cc1`, the activation was inactive: -3.39%. For the compound `Cc1cc(C)cc(N(C(=O)c2ccccc2)C2CCN(C(=O)OC(C)(C)C)CC2)c1`, the activation is inactive: -4.1%. The figure for `O=C(NCC1(N2CCCCC2)CCCCC1)c1ccc(Cl)nc1` is inactive: -4.28%. The figure for `O=c1[nH]c2ccccc2n1C1CCN(C(c2ccccc2OC(F)(F)F)c2nnnn2C2CCCCC2)CC1` (stereo not given) is inactive: 3.4%; for `O=C(NCC1(N2CCOCC2)CCCCC1)c1cc2ccccc2o1` it is inactive: 2.24%. The figure for `COc1ccc(Cl)cc1C(=O)NCC1(N2CCOCC2)CCCCC1` is inactive: 5.2%; for `O=C(NCC1(N2CCCCC2)CCCCC1)c1ccc(Cl)s1` it is inactive: -0.4%. For the compound `N#CC1(Nc2ccccc2)CCN(Cc2ccccc2)CC1`, the activation was inactive: -9.62%. The figure for `O=c1[nH]c2ccccc2n1C1CCN(C(c2cc3ccccc3o2)c2nnnn2C2CCCCC2)CC1` (stereo not given) is inactive: -4.32%; for `O=C(OC1CN2CCC1CC2)C1c2ccccc2Oc2ccccc21` (stereo not given) it is inactive: -22.8%.

`CCCCn1nnnc1C(c1ccc(OC)cc1)N1CCC(n2c(=O)[nH]c3ccccc32)CC1` (stereo not given): the activation is inactive: -7.54%.

With `CCOC(=O)N1CCC(Nc2ccc(OC)cc2)CC1`, the activation is inactive: 4.01%.

Turning to `COc1ccc(C(=O)NCC2(N3CCCCC3)CCCCC2)c(OC)c1OC`, the activation is inactive: 9.51%.

As to `CC(C)(C)OC(=O)N1CCC(N(C(=O)c2ccccc2)c2ccc(F)cc2)CC1`, the activation was inactive: -0.22%.

For the origin of these results see PubChem BioAssay AID624038 (The Scripps Research Institute Molecular Screening Center, 2012).
